Most compounds without a hit are left out; they make up all but 4.2% or so of the library.
MC4R antag cAMP – antagonists of human melanocortin 4 receptor (MC4R). P32245. MC4R-expressing cells, MTII-stimulated cAMP, LANCE TR-FRET. 360,000 compounds, 0.48% hits. AID 540295. inhibition, % at 6.5 µM;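 active = inhibition above its plate's cutoff, the mean of tested wells on that plate plus 3 SD, cut at about 29% in these data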;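 note: 0% = Melanotan II alone and 100% = Melanotan II plus saturating MCL0020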
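System – human MC4R-expressing U2OS cells · Also added – Melanotan II · Dosing – one concentration, 6.5 µM nominal · Timing – 30-min compound, 1-h challenge, 1-h detection, room temperature · Measured by – Eu-cAMP/anti-cAMP TR-FRET, emission 671 nm · Replicates – singlicate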
UUG fidelity – modulators of start codon recognition fidelity in yeast; AID 602363; hit rate 0.13% among 350,000; activity score, % at 18.7 µM; S. cerevisiae UUG-firefly luciferase reporter, luminescence/redox ratio;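 active = replicate mean at a twofold rise or more, about +100% in these data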;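 note: firefly luciferase made from a UUG start codon reports start codon fidelity; reporter light over untreated wells divided by growth signal over untreated wells; some hits fall short of that in this replicate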
MC4R ag barr – activates human MC4R beta-arrestin recruitment | P32245 | U2OS MC4R beta-arrestin complementation, luminescence; percent of melanotan II response, DMSO zero | activation, % at 8.9 µM | 360,000 compounds, 0.98% hits | AID 540308;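 active = activation above a per-plate cutoff, the mean activation of sample wells on that plate plus 3 SD, cut at about 8% in these data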
ALR inh – blocks human ALR sulfhydryl oxidase activity | inhibition, % (no concentration beside the values) | 3.8% of 290,000 active | purified ALR, DTT oxidation, H2O2 HRP-luminol luminescence | AID 485317 | P55789;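 active = mean and each replicate at 75% or more; inconclusive = only one of the two met; inactive = neither met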;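 also: stock transfer was 7.5 nL into about 7.5 µL; 0% = neutral wells and 100% = wells with inactivated enzyme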
NALP1 yeast inh – NALP1 inhibition | 280,000 compounds, 0.61% hits | inhibition, % at 10 µM | S. cerevisiae NALP1/ASC/caspase-1 growth, X-gal OD620, 72 h; in the data active = inhibition mostly above about 24%, no sharp cut-off; inactive = mostly below about 32%
HDAC3 inhib – inhibitors of human histone deacetylase 3 | 320,000 compounds, 0.15% hits | inhibition, % at 8.3 µM | AID 2718 | recombinant HDAC3, fluorogenic peptide/trypsin coupled, fluorescence | O15379; in the data active = inhibition above about 26%, passing the limit was not always enough; inconclusive = no clear call, values can overlap the other calls
* = called active by the depositor; ? = inconclusive; . = no result given.

Fields – MC4R antag cAMP	UUG fidelity	MC4R ag barr	ALR inh	NALP1 yeast inh	HDAC3 inhib
COCC(=O)Nc1nc(-c2ccc([N+](=O)[O-])cc2)cs1
→ 0	-7	-3	98*	7	3
COCC(=O)N1C[C@@H](C)[C@H](OC)CN(C)C(=O)c2cc(NC(=O)c3ccc(OC)cc3)ccc2OC[C@@H]1C
→ .	18	.	.	.	.
COc1ccccc1-c1ccc([C@H]2[C@H]3CN(Cc4ccncc4)CCCCN3[C@H]2CO)cc1
→ .	-7	.	.	.	.
COc1cccc(S(=O)(=O)N(C)C[C@H]2Oc3ncc(-c4cccc(C(=O)N(C)C)c4)cc3C(=O)N([C@H](C)CO)C[C@@H]2C)c1
→ .	8	.	.	.	.
Cc1ccc(S(=O)(=O)NC(=O)Nc2ccc(OC(F)F)cc2)cc1
→ 3	-14	-1	-1	36*	-1
Cc1ccc(S(=O)(=O)NC(=O)Nc2ccc(F)cc2)cc1
→ -7	-20	-1	-12	25	0
C[C@H]1CN([C@@H](C)CO)C(=O)c2cc(-c3ccccc3)cnc2O[C@H]1CN(C)C(=O)c1cccc(F)c1
→ .	11	.	.	.	.
COc1cc(-c2cc(=O)c3c(O)c(OC)c(OC)c(O)c3o2)ccc1O
→ 4	-6	1	99*	2	3
COc1c(O)c(O)c2oc(-c3ccccc3)cc(=O)c2c1OC
→ 9	8	0	51	-13	11
COc1ccc(-c2cc(OC)c3c(C)oc(C)c3c(=O)c2)cc1OC
→ 13	-19	-1	-1	14	11
COc1cc(-c2cc(OC)c3c(C)oc(C)c3c(=O)c2)ccc1O
→ -17	-7	-2	91*	14	4
COc1ccccc1C#Cc1ccc2c(c1)[C@H]1[C@H](CCN1C(=O)c1ccncc1)[C@H](CO)N2
→ .	-13	.	.	.	.
CCC(=O)Nc1ccc2c(c1)OC[C@@H](C)N(C(=O)Cc1cccnc1)C[C@@H](C)[C@H](OC)CN(C)C2=O
→ .	9	.	.	.	.
Oc1ccccc1/C=N/n1c2ccccc2c2ccccc21
→ -4	-14	9.2*	-11	8	-2
O=[N+]([O-])c1ccc(Cl)c(/C=N/n2c(-c3ccncc3)n[nH]c2=S)c1
→ 11	-12	2	-8	.	0
O=[N+]([O-])c1ccc(O)c(/C=N/n2c(-c3ccccc3)n[nH]c2=S)c1
→ 17	-12	-2	93*	-6	9
C(=N\n1c2ccccc2c2ccccc21)/c1ccccc1
→ 4	.	0	.	11	-2
Cc1[nH]n(-c2ccccc2)c(=O)c1/C=N/N(C)c1ccccc1
→ 5	.	-2	82*	28	3
Cn1cccc1/C=N/n1c(-c2ccc(C(C)(C)C)cc2)n[nH]c1=S
→ 0	-7	5	.	13	29*
Oc1ccccc1/C=N/n1c(-c2ccccc2)n[nH]c1=S
→ 3	-20	-2	98*	-6	-5

New compounds follow.
Fields – MC4R antag cAMP	UUG fidelity	MC4R ag barr	ALR inh	NALP1 yeast inh	HDAC3 inhib
S=c1[nH]nc(-c2cccs2)n1/N=C/c1cn(-c2ccccc2)nc1-c1ccccc1
→ 19	.	9.4*	.	.	0
Cc1ccc(-c2n[nH]c(=S)n2/N=C/c2c(C)[nH]n(-c3ccccc3)c2=O)cc1
→ -2	-31	-2	98*	-8	10
S=c1[nH]nc(-c2ccncc2)n1/N=C/C=C/c1ccccc1
→ 14	.	-2	92*	-7	?
COc1ccccc1C#Cc1cnc2c(c1)C(=O)N([C@@H](C)CO)C[C@H](C)[C@@H](CN(C)C)O2
→ .	1	.	.	.	.
C[C@H](CO)N1C[C@H](C)[C@H](CN(C)Cc2ccncc2)Oc2ncc(C#CC3CCCC3)cc2C1=O
→ .	-15	.	.	.	.
CO[C@@H]1CN(C)C(=O)c2cc(NC(=O)NC(C)C)ccc2OC[C@@H](C)N(Cc2ccccn2)C[C@@H]1C
→ .	-19	.	.	.	.
CC(=O)Nc1ccc(Nc2nnc(-c3ccc(O)cc3)c3ccccc23)cc1
→ -5	2	-1	84*	0	8
NC(=O)Cc1ccc(Nc2nnc(-c3ccc(O)cc3)c3ccccc23)cc1
→ 13	.	1	99*	21	?
Cc1ccc(-c2nnc(Nc3ccc(CC(N)=O)cc3)c3ccccc23)cc1S(=O)(=O)NCCO
→ -6	-16	-1	0	-11	3
NC(=O)c1ccc(Nc2nnc(-c3ccc(O)cc3)c3ccccc23)cc1
→ -3	.	0	96*	13	4
CCN(CC)C(=O)c1ccc(-c2nnc(Nc3ccc(O)cc3)c3ccccc23)cc1
→ -14	-5	-2	5	10	1
COc1ccccc1S(=O)(=O)N1CC[C@@H]2[C@@H](CO)Nc3ccc(-c4cccc(C#N)c4)cc3[C@@H]21
→ .	-8	.	.	.	.
COc1ccc(S(=O)(=O)Nc2ccc3c(c2)C(=O)N([C@@H](C)CO)C[C@@H](C)[C@H](CN(C)C(=O)Nc2ccc(F)cc2)O3)cc1
→ .	4	.	.	.	.
C[C@H](NC(=O)C[C@H]1C[C@H]2c3cc(NS(C)(=O)=O)ccc3O[C@H]2[C@H](CO)O1)c1ccccc1
→ .	-11	.	.	.	.
Cc1cc(C)c(S(=O)(=O)Nc2ccc(N(C)C)cc2)c(C)c1-n1cnnn1
→ 7	-28	0	99*	-3	8
Cc1ccccc1S(=O)(=O)N[C@H]1CC[C@H](CCNS(=O)(=O)c2cccc(F)c2)O[C@H]1CO
→ .	31	.	.	.	.
COc1ccc(NC(=O)Nc2ccc3c(c2)C(=O)N([C@@H](C)CO)C[C@H](C)[C@@H](CN(C)Cc2ccc(C(F)(F)F)cc2)OCCCC[C@@H](C)O3)cc1
→ .	-15	.	.	.	.
Cc1ccc(C(=O)CSC2=NC(N)=C(C#N)C3(CCCCC3)C2C(N)=O)cc1 (stereo not given)
→ -4	-16	-2	97*	5	14
N#CC1=C(N)N=C(SCc2ccccc2)C(C(N)=O)C12CCCCC2 (stereo not given)
→ 5	1	-1	-8	.	3
CC(C)CC#Cc1ccc2c(c1)O[C@H](CN(C)C(=O)C1CCCCC1)[C@@H](C)CN([C@@H](C)CO)S2(=O)=O
→ .	-14	.	.	.	.

Next section:
Fields – MC4R antag cAMP	UUG fidelity	MC4R ag barr	ALR inh	NALP1 yeast inh	HDAC3 inhib
CC(C)C(=O)Nc1ccc2c(c1)C(=O)N(C)[C@H]1CC[C@H](CC(=O)NCc3ccccc3)O[C@H]1CO2
→ .	2	.	.	.	.
C[C@H]1CN([C@@H](C)CO)S(=O)(=O)c2ccc(-c3ccncc3)cc2O[C@@H]1CN(C)C(=O)c1ccc2c(c1)OCO2
→ .	4	.	.	.	.
S=C(Nc1ccc(Nc2ccccc2)cc1)N1CCN(c2ncccn2)CC1
→ -5	.	-1	98*	14	-5
S=C(Nc1ccccc1)N1CCC(C2CCN(C(=S)Nc3ccccc3)CC2)CC1
→ .	.	.	-4	27	-6
Cc1cc(C)cc(NC(=S)N2CCN(c3ncccn3)CC2)c1
→ 4	-13	-1	-4	30	3
CC1CCCN(C(=S)Nc2ccc(F)cc2)C1 (stereo not given)
→ 4	.	-2	-2	6	-2
CC1CCCN(C(=S)Nc2ccc(Nc3ccccc3)cc2)C1 (stereo not given)
→ -3	.	-1	99*	-2	1

Entries listed so far with a furan ring, fused or not, in the order listed:
Fields – MC4R antag cAMP	UUG fidelity	MC4R ag barr	ALR inh	NALP1 yeast inh	HDAC3 inhib
COc1ccc(-c2cc(OC)c3c(C)oc(C)c3c(=O)c2)cc1OC
→ 13	-19	-1	-1	14	11
COc1cc(-c2cc(OC)c3c(C)oc(C)c3c(=O)c2)ccc1O
→ -17	-7	-2	91*	14	4

Given field by field: part of the list above
> S=C(Nc1ccc(Nc2ccccc2)cc1)N1CCN(c2ncccn2)CC1
  MC4R antag cAMP: -5	UUG fidelity: .	MC4R ag barr: -1	ALR inh: 98*	NALP1 yeast inh: 14	HDAC3 inhib: -5

> S=C(Nc1ccccc1)N1CCC(C2CCN(C(=S)Nc3ccccc3)CC2)CC1
  MC4R antag cAMP: .	UUG fidelity: .	MC4R ag barr: .	ALR inh: -4	NALP1 yeast inh: 27	HDAC3 inhib: -6

> Cc1cc(C)cc(NC(=S)N2CCN(c3ncccn3)CC2)c1
  MC4R antag cAMP: 4	UUG fidelity: -13	MC4R ag barr: -1	ALR inh: -4	NALP1 yeast inh: 30	HDAC3 inhib: 3

Source: PubChem BioAssay
